# Patent US9744172B2 (priority 2010, dated 2017)
# Sequences of proteins named here, by UniProt entry; tags and fusion partners are left off. Residues count along the entry.
# UniProt Q12866, 21-999: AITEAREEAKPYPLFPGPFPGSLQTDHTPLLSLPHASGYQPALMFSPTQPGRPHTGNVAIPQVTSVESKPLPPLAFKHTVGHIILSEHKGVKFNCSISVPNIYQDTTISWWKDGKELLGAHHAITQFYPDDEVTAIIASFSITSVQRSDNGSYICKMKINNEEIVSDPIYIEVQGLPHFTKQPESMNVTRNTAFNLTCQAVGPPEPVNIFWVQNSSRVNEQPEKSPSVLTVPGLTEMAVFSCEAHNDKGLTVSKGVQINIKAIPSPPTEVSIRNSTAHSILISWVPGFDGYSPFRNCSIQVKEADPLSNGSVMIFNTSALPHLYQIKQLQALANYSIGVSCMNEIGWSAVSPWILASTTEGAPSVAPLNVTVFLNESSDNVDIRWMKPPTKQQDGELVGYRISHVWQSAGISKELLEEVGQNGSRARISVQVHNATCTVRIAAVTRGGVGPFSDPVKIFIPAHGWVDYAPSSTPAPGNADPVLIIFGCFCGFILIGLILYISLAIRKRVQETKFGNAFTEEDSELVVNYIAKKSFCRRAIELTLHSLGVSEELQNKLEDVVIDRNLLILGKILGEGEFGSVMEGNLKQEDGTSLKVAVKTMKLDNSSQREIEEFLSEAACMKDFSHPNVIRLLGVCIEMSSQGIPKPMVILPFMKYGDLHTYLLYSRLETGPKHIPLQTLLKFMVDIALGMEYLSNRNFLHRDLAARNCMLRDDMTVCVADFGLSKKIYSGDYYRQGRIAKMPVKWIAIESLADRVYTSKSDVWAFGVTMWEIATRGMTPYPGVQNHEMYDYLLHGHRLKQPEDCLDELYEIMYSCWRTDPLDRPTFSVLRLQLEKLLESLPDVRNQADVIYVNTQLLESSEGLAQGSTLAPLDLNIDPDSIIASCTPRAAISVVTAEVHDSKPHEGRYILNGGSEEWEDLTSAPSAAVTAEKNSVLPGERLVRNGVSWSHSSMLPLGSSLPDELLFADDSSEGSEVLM
# Biological target: Mer receptor tyrosine kinase (Mer) (Homo sapiens (Human), UniProt Q12866)
row,Mer IC50,Compound
1,−,CCCCCNc1ncc2c(-c3ccccc3)nn(CC3CCC(NC(=O)OC(C)(C)C)CC3)c2n1 (stereo not shown) [UNC00000461A]
2,−,CN(C)CCCNc1ncc2c(-c3ccccc3)nn(CC3CCC(N)CC3)c2n1 (stereo not shown) [UNC00000473A]
3,−,COc1ccc(Nc2ncc3c(-c4ccccc4)nn(C(C)C)c3n2)cc1 [UNC1000A]
4,−,CC(C)n1nc(-c2ccccc2)c2cnc(Nc3ccc(F)cc3)nc21 [UNC1001A]
